# Results: ChEMBL document CHEMBL3351783, “Structural insights into carbonic anhydrase IX isoform specificity of carbohydrate-based sulfamates” (J Med Chem, 2014)
# Molecular target: Carbonic anhydrase 9 (Homo sapiens, UniProt Q16790)
# Test: Inhibition of human recombinant carbonic anhydrase 9 by stopped-flow CO2 hydration assay
row,Ki [nM],Structure (SMILES)
1,215,CC(=O)OC[C@H]1O[C@@H](S(=O)(=O)NCCOS(N)(=O)=O)[C@H](OC(C)=O)[C@@H](OC(C)=O)[C@@H]1OC(C)=O
2,2,CC(=O)OC[C@H]1O[C@@H](S(=O)(=O)N2CCC(OS(N)(=O)=O)CC2)[C@H](OC(C)=O)[C@@H](OC(C)=O)[C@@H]1OC(C)=O
